# Results reported in PubChem BioAssay AID602194 (The Scripps Research Institute Molecular Screening Center, 2012).
# By UniProt entry, the sequences of proteins in these tests, tags left out.
# UniProt P35372, whole entry, looked up: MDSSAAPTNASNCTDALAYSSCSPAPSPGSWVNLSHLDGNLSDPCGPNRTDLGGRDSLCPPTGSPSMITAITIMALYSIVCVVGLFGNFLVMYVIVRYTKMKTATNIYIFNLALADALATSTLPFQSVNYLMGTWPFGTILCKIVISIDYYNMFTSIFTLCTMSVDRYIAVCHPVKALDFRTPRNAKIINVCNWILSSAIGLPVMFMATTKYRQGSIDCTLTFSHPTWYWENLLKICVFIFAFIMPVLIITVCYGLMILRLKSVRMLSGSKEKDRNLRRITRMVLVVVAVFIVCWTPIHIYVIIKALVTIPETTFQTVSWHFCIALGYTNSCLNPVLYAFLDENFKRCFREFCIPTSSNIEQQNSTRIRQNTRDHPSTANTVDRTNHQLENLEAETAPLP
# UniProt P41143, whole entry, looked up: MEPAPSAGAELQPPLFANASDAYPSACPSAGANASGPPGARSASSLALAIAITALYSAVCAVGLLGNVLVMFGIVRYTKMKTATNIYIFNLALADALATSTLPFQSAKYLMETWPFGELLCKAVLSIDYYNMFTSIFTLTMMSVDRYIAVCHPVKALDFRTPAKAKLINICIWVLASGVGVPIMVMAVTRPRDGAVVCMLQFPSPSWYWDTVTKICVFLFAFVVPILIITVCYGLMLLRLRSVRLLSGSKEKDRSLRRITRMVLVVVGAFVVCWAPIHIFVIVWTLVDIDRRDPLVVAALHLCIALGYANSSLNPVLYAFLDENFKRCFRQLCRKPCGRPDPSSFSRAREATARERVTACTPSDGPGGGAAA
# The list shows a part of the results, in another mix than the full data. The source made the active and inactive calls.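 Rule for the calls: active = mean activation across replicates exceeds the hit threshold derived in the earlier primary screen (cut at about 18% in these data); inactive = the rest.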
# Target: Mu-type opioid receptor (Homo sapiens) + Delta-type opioid receptor (Homo sapiens) (UniProt P35372+P41143)
# Test: agonists of MOR-DOR heterodimerization, counter-screen for MC4R biased agonist project, cell-based, luminescence (AID 602194);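 note: 100% = deltorphin B at 0.9 µM final and 0% = DMSO alone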
# Settings: U2OS PathHunter beta-arrestin, beta-gal luminescence; at 9.2 µM; active compounds read high; percent of deltorphin B response, DMSO zero
row,SMILES,activation
1,N=c1n(CCN2CCCCC2)c2ccccc2n1CC(=O)c1cccc([N+](=O)[O-])c1,inactive: 7.01%
2,CCC(C)c1ccc2oc(-c3ccc(NC(=O)Cn4cnc5c(=O)n(C)c(=O)n(C)c54)cc3)nc2c1 (configuration not stated),inactive: 9.2%
